Antibody variant affinities, Ab-14 heavy chain, assay B

Target peptide (SARS-CoV-2 spike, HR2 region): PDVDLGDISGINAS

Ab-14 is the parent antibody, in scFv form: VH, then a 15-residue (Gly4Ser)3 linker, then VL. The light chain is unchanged in all variants.
VH: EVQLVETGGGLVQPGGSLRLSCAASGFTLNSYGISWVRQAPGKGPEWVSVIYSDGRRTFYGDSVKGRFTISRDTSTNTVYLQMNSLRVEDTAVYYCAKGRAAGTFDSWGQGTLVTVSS
VL: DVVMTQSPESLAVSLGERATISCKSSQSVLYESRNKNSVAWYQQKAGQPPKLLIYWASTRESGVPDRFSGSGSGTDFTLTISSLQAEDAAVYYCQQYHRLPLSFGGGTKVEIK

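The starting antibody came from a phage panning campaign against this peptide. Designed CDR sequences, proposed from the first random library and measured here. Their group label is 14H_GPLM_Gen (GPLM: also part of the Gaussian process libraries; Gen: genetic algorithm; a sequence that several methods proposed may carry one label only). AlphaSeq pools MATa yeast showing the antibodies with MATalpha yeast showing the peptide. The frequency of each diploid, read from paired DNA barcodes, reflects how well the two displayed proteins bind. Scores were corrected for input abundance and mapped to Kd with protein pairs of known affinity run in the same pool. The assay was run in six technical replicates.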

Substitutions are numbered in sequence along the VH above, starting at 1 (not Kabat).
The read-out is the apparent dissociation constant on a log10 scale (nM): the lower, the stronger.
Averages over replicates are reported, and they cover detected replicates only.
A pair that was not seen in that replicate is written "ND"; this usually means weak binding, but a binder can also be missed.
The parent sequence was in this pool as ten entries: three were never detected, three once, and four in most replicates, with averages from 0.34 to 2.37.
Empty control strains, which show no peptide, gave a signal in 1% of pairings with all heavy chain designs; the median was 2.08 and 95% of these signals were weaker than 0.84. No background was subtracted. For each scFv, signals with the empty controls are counted beside the result, with their mean in brackets.
The authors' rule: three or more of the six replicates give a measured affinity, fewer mean a poor binder.
A sequence measured in both rounds can read differently, since the two assays cover different ranges.

changes | replicates, log10 nM | mean, log10 nM | signal with controls
T28S G61A R100K S107L | ND / ND / ND / 0.36 / ND / ND | 0.36 | 0 of 18
R56K A101T S107T | 0.82 / 1.49 / 1.77 / 1.57 / 1.14 / 0.80 | 1.27 | 1 of 18 (2.49)
S31E R100K A101T | 0.31 / 0.08 / 0.32 / 0.23 / 0.01 / 0.59 | 0.26 | 1 of 18 (2.63)
T28S S31E A101D | 0.28 / 0.51 / 0.52 / 0.51 / 0.39 / 0.72 | 0.49 | 1 of 18 (3.21)
F27K S53A R100K | 0.76 / 0.38 / 0.73 / 1.03 / 0.97 / 0.77 | 0.77 | 0 of 18
T28S S63N R100Q | 0.01 / 0.94 / 0.65 / 0.35 / 1.43 / -0.11 | 0.55 | 0 of 18
T28S S31E G61Q A101T | 0.57 / ND / ND / ND / ND / ND | 0.57 | 0 of 18
R56K A101E S107T | 0.46 / 0.42 / 0.15 / 0.17 / 0.15 / 0.34 | 0.28 | 0 of 18
N30E G61A S63D A101T | 0.06 / 0.05 / -0.07 / -0.06 / -0.11 / 0.14 | 0.00 | 0 of 18
T28D F59V A101T | 0.14 / -0.16 / -0.33 / 0.09 / -0.14 / -0.14 | -0.09 | 2 of 18 (2.12)
T28S R100K A101T S107R | 0.27 / 0.95 / 0.98 / -0.58 / 0.21 / 0.17 | 0.34 | 0 of 18
G61A A101Q | 1.39 / 0.85 / 1.09 / 0.34 / 0.70 / 0.44 | 0.80 | 0 of 18
T28S S31N R100Q S107N | 1.30 / 1.26 / 1.20 / 2.92 / 1.13 / 0.65 | 1.41 | 1 of 18 (3.01)
R56V G61S R100Q | 1.07 / 0.65 / 1.12 / 1.40 / 1.47 / 0.88 | 1.10 | 0 of 18
T28D G103A | ND / ND / ND / ND / ND / 2.96 | 2.96 | 1 of 18 (1.75)
T28S R56H A101V | 0.57 / 0.73 / 0.49 / 0.64 / 0.73 / 0.70 | 0.65 | 4 of 18 (2.34)
T28N G61A A101E S107T | 0.07 / 0.18 / -0.22 / 0.45 / -0.40 / -0.17 | -0.02 | 0 of 18
S31E A101T S107V | -0.48 / -0.35 / -0.39 / -0.60 / -0.43 / -0.20 | -0.41 | 0 of 18
T28S G61A R100E S107N | 0.47 / -0.03 / 0.47 / 0.49 / 0.22 / 0.42 | 0.34 | 0 of 18
S31D G61T A101T | ND / 1.04 / 0.56 / ND / ND / ND | 0.80 | 0 of 18
T28D A101T D106W | ND / ND / ND / ND / ND / ND | ND | 0 of 18
G26K T28N G61A A101T | ND / 0.57 / 0.20 / 0.96 / 1.76 / 1.08 | 0.92 | 0 of 18
T28Q G61S R100E | 0.57 / -0.04 / 0.13 / 0.38 / 0.01 / 0.43 | 0.25 | 1 of 18 (3.00)
R56Q G61S R100K | 0.60 / 0.34 / 0.45 / 0.30 / 1.04 / 0.56 | 0.55 | 0 of 18
T28H G61A R100Q A101T | ND / ND / ND / ND / ND / ND | ND | 0 of 18
A101V S107I | 2.11 / 0.67 / 1.10 / 2.71 / 0.56 / 1.10 | 1.37 | 0 of 18
T28S G61K R100E | ND / ND / ND / ND / ND / ND | ND | 0 of 18
T28E G61S R100E | 0.59 / 0.52 / 0.53 / 1.01 / 0.46 / 0.91 | 0.67 | 0 of 18
T28S G61A R100K A101M | -0.24 / -0.28 / -0.32 / -0.49 / 0.35 / -0.61 | -0.26 | 1 of 18 (1.55)
T28D G61A A101T S107K | ND / 0.64 / ND / ND / ND / ND | 0.64 | 0 of 18
T28S S31E R56K G61A A101T | -0.14 / -0.13 / -0.40 / -0.55 / -0.10 / -0.18 | -0.25 | 0 of 18
R100Q A101E S107T | 0.48 / 0.01 / -0.09 / -0.04 / 0.15 / 0.65 | 0.19 | 0 of 18
T28S S31E D62Q A101T | 0.53 / 0.09 / 0.46 / 0.61 / 0.25 / 0.84 | 0.47 | 0 of 18
T28S R56M G61A A101T | 1.10 / 1.16 / 2.61 / 1.63 / 1.78 / 1.33 | 1.60 | 1 of 18 (2.23)
T28D S31E R100K | 0.39 / 0.24 / -0.19 / 0.03 / -0.04 / -0.13 | 0.05 | 0 of 18
S31D A101T D106T | 0.87 / 0.29 / 0.53 / 1.83 / 0.49 / 0.50 | 0.75 | 0 of 18

The first 3 variants above that were never detected:

| changes | replicates, log10 nM | mean, log10 nM | signal with controls |
|---|---|---|---|
| T28D A101T D106W | ND / ND / ND / ND / ND / ND | ND | 0 of 18 |
| T28H G61A R100Q A101T | ND / ND / ND / ND / ND / ND | ND | 0 of 18 |
| T28S G61K R100E | ND / ND / ND / ND / ND / ND | ND | 0 of 18 |

Values reported by Li et al. 2023, doi:10.1038/s41467-023-39022-2 (FLAb copy).